AlphaSeq binding of Ab-14 heavy chain variants to a spike HR2 peptide

The measurements come from Engelhart et al. 2022 (doi:10.1038/s41597-022-01779-4) through the FLAb antibody collection.

All variants were tested on one target, the spike HR2 peptide PDVDLGDISGINAS (SARS-CoV-2).

Parent: Ab-14, a human scFv built as VH, three GGGGS repeats, VL. Only the CDRs of the heavy chain vary.
VH: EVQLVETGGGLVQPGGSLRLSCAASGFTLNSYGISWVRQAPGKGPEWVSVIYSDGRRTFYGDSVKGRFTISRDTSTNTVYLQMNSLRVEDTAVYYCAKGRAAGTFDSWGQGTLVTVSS
VL: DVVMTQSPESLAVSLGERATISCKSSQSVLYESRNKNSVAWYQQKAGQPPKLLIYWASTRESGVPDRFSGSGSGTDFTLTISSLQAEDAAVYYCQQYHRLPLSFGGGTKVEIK

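Variants in AAYL49 differ from the parent at up to three CDR positions; double and triple changes were sampled at random. Affinity was read by AlphaSeq, a pooled yeast mating assay with surface-displayed partners. After mating in shaken culture at 30 °C for 16 h, diploids were selected and their barcode pairs sequenced. Read counts were normalised to the haploid input and turned into Kd by a linear fit to BCL2-family pairs of known affinity, for each replicate. The assay was run in three technical replicates.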

Positions count from residue 1 of the parent VH; V50C puts C in place of V.
The Kd shown is the geometric mean over detected replicates; a lower Kd is a better binder.
An entry "no signal" has no value in the source: the pair was not observed among the diploids in any replicate. This suggests poor binding but is not conclusive.
As a blank, each scFv also met three strains without target: over library AAYL49, 15% of these pairings were detected, typically at 11 µM and seldom below 680 nM.

changes,apparent Kd,replicates with signal
V50C/S53G/R100Q,no signal,0/3
T58M/R100A,36 nM,3/3
S31V/T104F/S107Q,36 µM,1/3
G33W/R57D/S63W,48 µM,3/3
I34W/V50R/G99I,25 µM,1/3
Y32C/D54L/V64W,1.2 mM,1/3
F27W/L29C/S107T,no signal,0/3
Y32K/R100N/A102C,no signal,0/3
R57D/S107I,12 µM,2/3
L29T/K65Y,no signal,0/3
D54G/T58V/D106G,no signal,0/3
G26I/N30A/G61K,3.4 µM,3/3
Y52K/D54I/S107K,no signal,0/3
T28W/S63W/F105Y,93 µM,1/3
V50R/G55E/T104C,no signal,0/3
T58K/K65T/F105E,no signal,0/3
G26E/I51R/S53L,no signal,0/3
I34F/G61Y/S107E,no signal,0/3
Y32T/G33I/A102N,14 µM,1/3
Y52N/G55P/S107H,230 µM,1/3
I51R/T58W/G99N,no signal,0/3
N30Q/Y32E/T58Y,no signal,0/3
G61S/A101W/A102N,47 nM,3/3
V50P/T104V,no signal,0/3
Y52S/G103L,no signal,0/3
S53G/D62P,500 nM,3/3
G33W/V50T/A102I,160 µM,1/3
S35D/S53R/T104K,1.1 µM,1/3
R57W/Y60H,no signal,0/3
N30R/S35N/G103K,no signal,0/3
T28D/Y60I,32 nM,3/3
I51W/D62R/T104Y,18 µM,1/3
L29H/S53Q/G61A,2.2 µM,1/3
I34F/K65H/G103R,no signal,0/3
D54P/R56D/T58F,110 µM,1/3
F27R/T28S/D106F,no signal,0/3
G33I/G103R/T104L,65 µM,1/3
S35K/S53T/A102D,no signal,0/3
T58E/A102F/G103S,no signal,0/3
L29R/A102V/T104Q,no signal,0/3
G33M/G55Q/G99F,no signal,0/3
R56L/G61E/F105A,no signal,0/3
N30A/G55I/G61F,no signal,0/3
G26F/Y52D/G55V,24 µM,2/3
T58I/Y60I/G61T,910 nM,3/3
G33M/G61A/A102Y,no signal,0/3

Picked from the list: the 6 lowest averages where every replicate gave a value.

changes,apparent Kd,replicates with signal
T28D/Y60I,32 nM,3/3
T58M/R100A,36 nM,3/3
G61S/A101W/A102N,47 nM,3/3
S53G/D62P,500 nM,3/3
T58I/Y60I/G61T,910 nM,3/3
G26I/N30A/G61K,3.4 µM,3/3

In this assay the parent's reference entry averaged 4.4 nM; its copy inside this library read 13 µM (one replicate of three).